Values quoted from earlier work, collected in patent publication US7183291B2 (Council of Scientific and Industrial Research, priority 1999, dated 2007).

Key:
[1] = oral labelled primaquine; cited from earlier work
erythrocytes = conditions: incubated with G-6PD deficient erythrocytes; cited from earlier work

For COc1cc(NC(C)CCCN)c2ncccc2c1 (stereo not drawn) [Primaquine, 8-(4-amino-1-methylbutylamino)-6-methoxy quinoline, reference compound], the “radioactivity in lung, adrenal, spleen, kidney, heart, blood and pancreas” value [1] is given as 22%, the “radioactivity reached in to the plasma” value [1] is given as 25% and the oxidant activity (erythrocytes) is given as “little oxidant activity”.
